Patent US20060292634A1 (CATCHMABS B V, published 2006)

Biological target: T1, RNase A (bovine, UniProt P61823 27-150)
T1 construct: Coated in immunotubes for panning; also called bovine RNase A
T1 sequence (looked up): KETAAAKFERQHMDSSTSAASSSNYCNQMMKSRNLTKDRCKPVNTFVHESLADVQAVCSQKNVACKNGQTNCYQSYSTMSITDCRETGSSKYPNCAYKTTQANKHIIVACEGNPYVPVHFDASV
Assay: phage panning on RNase A coated immunotubes

B1: iMab130 displayed on phage as g3 fusion (designed binder)
chain: NVKLVEKGGNFVENDDDLKLTCRASGYAYTYIYMGWFRQAPNDDSTNVATIDSGGGGTLYGDSVKERFDIRRDKGSNTVTLSMDDLQPEDSAEYNCAAGGYELRDRTYGQRGQGTDVTVSS
binding result: no binding
